Test results reported in ChEMBL document CHEMBL1129250, “Interaction of 1,4-dihydropyridine and pyridine derivatives with adenosine receptors: selectivity for A3 receptors” (J Med Chem, 1996).

Chains of the proteins cited; added tags and fusions are not shown. Lines headed by an entry give the natural chain unless they say otherwise; changes in a name come on top.
UniProt P22002: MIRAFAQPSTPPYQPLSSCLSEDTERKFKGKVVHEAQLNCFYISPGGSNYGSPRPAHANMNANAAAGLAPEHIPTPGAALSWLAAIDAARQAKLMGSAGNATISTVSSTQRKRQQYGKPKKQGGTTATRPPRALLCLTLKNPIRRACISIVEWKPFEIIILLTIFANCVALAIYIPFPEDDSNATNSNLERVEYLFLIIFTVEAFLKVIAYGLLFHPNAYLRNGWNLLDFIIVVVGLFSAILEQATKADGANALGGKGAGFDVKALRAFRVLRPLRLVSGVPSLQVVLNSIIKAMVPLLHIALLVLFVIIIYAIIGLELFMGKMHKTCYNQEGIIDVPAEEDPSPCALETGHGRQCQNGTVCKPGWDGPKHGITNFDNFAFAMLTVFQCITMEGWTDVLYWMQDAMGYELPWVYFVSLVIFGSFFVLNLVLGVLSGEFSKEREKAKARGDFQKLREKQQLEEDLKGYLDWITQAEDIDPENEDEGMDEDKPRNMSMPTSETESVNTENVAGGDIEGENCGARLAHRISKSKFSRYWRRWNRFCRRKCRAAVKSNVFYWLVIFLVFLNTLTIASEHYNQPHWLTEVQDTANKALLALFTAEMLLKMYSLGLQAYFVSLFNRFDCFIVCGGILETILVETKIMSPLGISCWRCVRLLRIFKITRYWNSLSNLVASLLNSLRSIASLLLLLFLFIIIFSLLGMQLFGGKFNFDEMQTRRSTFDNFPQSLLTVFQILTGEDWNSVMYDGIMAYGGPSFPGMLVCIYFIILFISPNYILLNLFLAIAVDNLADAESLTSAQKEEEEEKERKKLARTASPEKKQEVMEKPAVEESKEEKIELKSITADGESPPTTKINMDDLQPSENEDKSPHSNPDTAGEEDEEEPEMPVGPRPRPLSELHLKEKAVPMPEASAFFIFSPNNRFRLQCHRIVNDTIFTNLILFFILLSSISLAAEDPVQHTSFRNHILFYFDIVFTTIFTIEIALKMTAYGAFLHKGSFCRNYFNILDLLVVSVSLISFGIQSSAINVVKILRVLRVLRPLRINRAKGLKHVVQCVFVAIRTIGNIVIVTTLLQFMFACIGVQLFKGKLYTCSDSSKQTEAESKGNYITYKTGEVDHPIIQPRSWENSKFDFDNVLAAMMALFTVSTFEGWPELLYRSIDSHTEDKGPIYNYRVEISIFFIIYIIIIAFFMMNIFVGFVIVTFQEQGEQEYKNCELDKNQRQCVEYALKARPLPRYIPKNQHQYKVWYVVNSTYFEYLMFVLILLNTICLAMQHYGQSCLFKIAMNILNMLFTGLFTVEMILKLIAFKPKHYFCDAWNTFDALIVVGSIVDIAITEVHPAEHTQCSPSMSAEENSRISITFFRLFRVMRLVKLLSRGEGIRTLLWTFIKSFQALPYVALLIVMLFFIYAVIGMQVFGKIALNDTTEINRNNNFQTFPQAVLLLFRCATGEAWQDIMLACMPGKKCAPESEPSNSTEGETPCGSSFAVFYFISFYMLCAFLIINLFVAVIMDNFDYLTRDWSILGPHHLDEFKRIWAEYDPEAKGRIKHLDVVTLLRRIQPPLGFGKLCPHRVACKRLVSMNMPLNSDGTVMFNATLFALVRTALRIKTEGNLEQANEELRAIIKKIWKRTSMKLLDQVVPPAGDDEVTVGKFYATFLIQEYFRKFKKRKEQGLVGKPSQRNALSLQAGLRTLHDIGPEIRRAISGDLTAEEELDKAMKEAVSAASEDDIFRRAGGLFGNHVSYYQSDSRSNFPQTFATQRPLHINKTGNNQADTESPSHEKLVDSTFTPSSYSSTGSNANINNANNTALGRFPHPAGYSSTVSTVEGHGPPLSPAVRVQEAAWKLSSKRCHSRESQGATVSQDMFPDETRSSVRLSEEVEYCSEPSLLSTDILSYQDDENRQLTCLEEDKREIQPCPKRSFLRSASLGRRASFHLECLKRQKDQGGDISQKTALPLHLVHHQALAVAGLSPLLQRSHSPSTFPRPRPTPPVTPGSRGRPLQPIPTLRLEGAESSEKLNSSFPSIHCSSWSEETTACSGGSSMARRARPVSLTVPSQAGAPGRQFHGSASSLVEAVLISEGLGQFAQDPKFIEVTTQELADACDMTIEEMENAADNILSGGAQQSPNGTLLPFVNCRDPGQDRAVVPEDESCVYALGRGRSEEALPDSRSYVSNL
UniProt Q02485: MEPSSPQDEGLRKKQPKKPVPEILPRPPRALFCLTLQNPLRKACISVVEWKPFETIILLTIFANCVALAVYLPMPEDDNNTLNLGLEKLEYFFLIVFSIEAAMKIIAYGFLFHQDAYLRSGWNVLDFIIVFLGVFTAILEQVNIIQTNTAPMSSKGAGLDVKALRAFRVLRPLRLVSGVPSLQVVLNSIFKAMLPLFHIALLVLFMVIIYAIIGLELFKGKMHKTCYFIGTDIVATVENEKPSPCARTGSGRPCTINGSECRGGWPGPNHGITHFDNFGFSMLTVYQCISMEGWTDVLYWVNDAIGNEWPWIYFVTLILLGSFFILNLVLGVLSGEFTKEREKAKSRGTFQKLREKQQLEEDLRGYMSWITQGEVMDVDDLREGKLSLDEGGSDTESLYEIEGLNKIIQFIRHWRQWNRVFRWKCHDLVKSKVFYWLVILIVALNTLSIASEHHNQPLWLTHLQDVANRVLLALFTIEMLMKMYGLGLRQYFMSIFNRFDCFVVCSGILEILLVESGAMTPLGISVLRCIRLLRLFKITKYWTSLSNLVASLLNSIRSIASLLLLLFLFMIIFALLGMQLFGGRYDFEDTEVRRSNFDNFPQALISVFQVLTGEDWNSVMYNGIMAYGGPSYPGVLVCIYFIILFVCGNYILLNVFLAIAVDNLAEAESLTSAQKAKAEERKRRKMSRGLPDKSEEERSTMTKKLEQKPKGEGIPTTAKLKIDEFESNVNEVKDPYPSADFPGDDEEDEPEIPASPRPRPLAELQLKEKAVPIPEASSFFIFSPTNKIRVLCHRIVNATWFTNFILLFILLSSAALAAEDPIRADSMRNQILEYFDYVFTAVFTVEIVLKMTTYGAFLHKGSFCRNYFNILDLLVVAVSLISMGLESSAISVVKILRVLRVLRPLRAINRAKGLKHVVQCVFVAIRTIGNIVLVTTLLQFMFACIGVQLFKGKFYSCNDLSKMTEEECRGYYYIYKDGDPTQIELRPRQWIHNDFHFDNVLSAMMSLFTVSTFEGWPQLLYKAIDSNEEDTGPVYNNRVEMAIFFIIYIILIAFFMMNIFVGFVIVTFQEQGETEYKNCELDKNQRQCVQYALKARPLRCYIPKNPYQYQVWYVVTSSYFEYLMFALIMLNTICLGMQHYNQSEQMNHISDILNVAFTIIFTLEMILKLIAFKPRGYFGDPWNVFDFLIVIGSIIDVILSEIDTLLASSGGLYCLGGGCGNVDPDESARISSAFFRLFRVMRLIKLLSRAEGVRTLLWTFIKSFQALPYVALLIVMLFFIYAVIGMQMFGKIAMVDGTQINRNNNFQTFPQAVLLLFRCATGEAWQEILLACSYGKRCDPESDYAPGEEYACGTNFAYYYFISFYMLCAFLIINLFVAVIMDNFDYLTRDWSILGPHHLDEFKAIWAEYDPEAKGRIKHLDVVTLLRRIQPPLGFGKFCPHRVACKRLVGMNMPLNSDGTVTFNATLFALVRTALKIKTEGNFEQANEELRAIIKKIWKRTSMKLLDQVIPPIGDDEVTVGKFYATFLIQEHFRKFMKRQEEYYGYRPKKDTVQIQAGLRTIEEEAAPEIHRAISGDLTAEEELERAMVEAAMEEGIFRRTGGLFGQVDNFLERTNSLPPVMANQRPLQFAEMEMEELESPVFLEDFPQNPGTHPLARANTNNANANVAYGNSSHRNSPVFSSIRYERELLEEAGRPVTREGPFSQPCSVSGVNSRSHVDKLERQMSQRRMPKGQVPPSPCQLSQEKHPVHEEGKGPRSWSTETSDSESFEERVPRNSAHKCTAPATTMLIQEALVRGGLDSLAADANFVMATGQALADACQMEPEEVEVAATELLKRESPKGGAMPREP
UniProt P27732: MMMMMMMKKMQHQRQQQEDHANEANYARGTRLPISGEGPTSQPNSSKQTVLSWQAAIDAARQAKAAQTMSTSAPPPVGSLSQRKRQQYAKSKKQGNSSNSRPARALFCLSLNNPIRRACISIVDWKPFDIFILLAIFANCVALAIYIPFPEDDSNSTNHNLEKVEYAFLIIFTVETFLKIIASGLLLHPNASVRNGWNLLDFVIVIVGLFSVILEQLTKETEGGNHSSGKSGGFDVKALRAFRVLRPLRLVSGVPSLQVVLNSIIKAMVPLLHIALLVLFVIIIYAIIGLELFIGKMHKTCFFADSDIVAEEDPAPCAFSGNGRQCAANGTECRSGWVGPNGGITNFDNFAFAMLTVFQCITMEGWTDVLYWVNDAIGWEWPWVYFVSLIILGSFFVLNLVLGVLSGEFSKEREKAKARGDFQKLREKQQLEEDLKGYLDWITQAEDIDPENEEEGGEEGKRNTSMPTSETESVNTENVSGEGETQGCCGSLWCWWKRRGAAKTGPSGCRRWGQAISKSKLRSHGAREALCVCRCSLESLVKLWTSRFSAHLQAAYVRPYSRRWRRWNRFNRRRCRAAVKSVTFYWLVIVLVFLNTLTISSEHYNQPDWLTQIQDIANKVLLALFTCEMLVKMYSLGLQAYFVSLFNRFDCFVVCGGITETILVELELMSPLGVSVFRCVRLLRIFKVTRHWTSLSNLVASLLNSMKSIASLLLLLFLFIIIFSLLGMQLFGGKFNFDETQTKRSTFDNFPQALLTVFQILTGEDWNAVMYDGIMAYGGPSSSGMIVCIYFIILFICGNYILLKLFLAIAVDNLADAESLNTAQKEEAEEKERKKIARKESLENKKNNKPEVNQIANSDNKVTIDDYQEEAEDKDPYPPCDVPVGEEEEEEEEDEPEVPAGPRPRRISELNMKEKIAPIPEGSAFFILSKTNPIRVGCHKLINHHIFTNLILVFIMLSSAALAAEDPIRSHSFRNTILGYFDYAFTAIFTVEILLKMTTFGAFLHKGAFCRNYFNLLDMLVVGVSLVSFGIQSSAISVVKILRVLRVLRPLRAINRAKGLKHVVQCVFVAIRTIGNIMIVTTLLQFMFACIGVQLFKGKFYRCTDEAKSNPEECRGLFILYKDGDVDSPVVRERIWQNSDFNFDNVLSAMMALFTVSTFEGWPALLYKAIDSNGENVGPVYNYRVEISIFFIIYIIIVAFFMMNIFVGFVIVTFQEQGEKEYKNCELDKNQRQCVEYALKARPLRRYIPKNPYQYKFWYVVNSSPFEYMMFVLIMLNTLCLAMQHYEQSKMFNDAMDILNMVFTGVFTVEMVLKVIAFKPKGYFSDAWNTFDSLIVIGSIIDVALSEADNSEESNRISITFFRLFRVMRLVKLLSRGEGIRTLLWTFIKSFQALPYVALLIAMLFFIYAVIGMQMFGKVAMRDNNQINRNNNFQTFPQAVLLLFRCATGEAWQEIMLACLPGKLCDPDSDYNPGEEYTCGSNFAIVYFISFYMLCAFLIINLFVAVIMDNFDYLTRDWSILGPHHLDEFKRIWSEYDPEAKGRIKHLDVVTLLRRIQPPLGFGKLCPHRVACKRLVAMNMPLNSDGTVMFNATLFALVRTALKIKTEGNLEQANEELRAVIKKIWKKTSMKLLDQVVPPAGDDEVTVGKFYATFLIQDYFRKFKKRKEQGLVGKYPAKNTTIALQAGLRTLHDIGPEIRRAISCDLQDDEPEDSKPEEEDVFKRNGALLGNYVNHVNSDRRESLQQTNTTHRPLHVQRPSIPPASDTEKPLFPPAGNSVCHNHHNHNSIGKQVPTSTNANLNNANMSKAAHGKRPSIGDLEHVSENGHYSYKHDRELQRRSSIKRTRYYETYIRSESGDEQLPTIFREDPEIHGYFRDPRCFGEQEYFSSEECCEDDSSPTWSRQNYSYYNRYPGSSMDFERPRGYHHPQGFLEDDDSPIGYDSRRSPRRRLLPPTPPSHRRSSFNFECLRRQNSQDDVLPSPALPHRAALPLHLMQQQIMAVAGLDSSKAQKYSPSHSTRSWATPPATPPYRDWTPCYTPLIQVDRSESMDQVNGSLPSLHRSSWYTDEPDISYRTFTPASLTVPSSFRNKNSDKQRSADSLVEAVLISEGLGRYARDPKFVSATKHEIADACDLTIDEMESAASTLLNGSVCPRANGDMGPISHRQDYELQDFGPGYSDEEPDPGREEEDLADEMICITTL

How the values were obtained:
[1] = target: Adenosine receptor A2a (Rattus norvegicus, UniProt P30543); test: Displacement of [3H]-CGS- 21680 binding to Adenosine A2A receptor in rat striatal membranes; type: cell membranes, Membrane
[2] = target: Voltage-gated L-type calcium channel (Rattus norvegicus, UniProt P22002+Q02485+P27732); test: Inhibition of [3H]-isradipine binding to L-type [Ca2+] channel of rat brain membranes; type: cell membranes, Membrane

Compound | Ki [1] [µM] | Ki [2] [µM]
CO/C(O)=C1\C(C)=NC(C)=C([N+](=O)[O-])[C@@H]1c1ccccc1C(F)(F)F | 35.1 | –
CO/C(O)=C1\C(C)=NC(C)=C([N+](=O)[O-])[C@H]1c1ccccc1C(F)(F)F | 86.3 | –
COC(=O)C1=C(C)NC(C)=C(C(=O)OCCCN2CCC(c3ccccc3)(c3ccccc3)CC2)[C@@H]1c1cccc([N+](=O)[O-])c1 [DEXNIGULDIPINE] | – | 0.0597
